Source: US20190321478A1 (published 2019)

T1: NYESO1 (peptide NYESO1-001) peptide on HLA-A*02:01 (human)
T1 peptide: SLLMWITQV


Biological target: T1, NYESO1 (peptide NYESO1-001) peptide on …
Experiment: multimer staining

binding result | Binder
no recognition | R59P2E7 (TCR, V domains shown) Valpha: KQEVTQIPAALSVPEGENLVLNCSFTDSAIYNLQWFRQDPGKGLTSLLLIQSSQREQTSGRLNASLDKSSGRSTLYIAASQPGDSATYLCAVNSDYKLSFGAGTTVTVRA Vbeta: AAGVIQSPRHLIKEKRETATLKCYPIPRHDTVYWYQQGPGQDPQFLISFYEKMQSDKGSIPDRFSAQQFSDYHSELNMSSLELGDSALYFCASSLGLGTGDYGYTFGSGTRLTVV
no recognition | R37P1H1 (TCR, V domains shown) Valpha: AQTVTQSQPEMSVQEAETVTLSCTYDTSESNYYLFWYKQPPSRQMILVIRQEAYKQQNATENRFSVNFQKAAKSFSLKISDSQLGDTAMYFCAFGYSGGGADGLTFGKGTHLIIQP Vbeta: DAGVTQSPTHLIKTRGQQVTLRCSPKSGHDTVSWYQQALGQGPQFIFQYYEEEERQRGNFPDRFSGHQFPNYSSELNVNALLLGDSALYLCASSNEGQGWEAEAFFGQGTRLTVV
